Data set [1] in a line: Effect on spontaneous locomotion in mouse assessed as reduction in distance travelled at 3.4 mg/kg, ip administered for 3 hrs. The conditions noted are these: in vivo.
Data set [2] in a line: Effect on spontaneous locomotion in mouse assessed as reduction in distance travelled at 0.5 mg/kg, ip administered for 3 hrs. Conditions: in vivo.
Data set [3] is described as follows: Volume of distribution at steady state in Sprague-Dawley rat at 1 mg/kg, iv administered as single dose by LC-MS/MS analysis. Conditions: in vivo.
The nature of data set [4]: Half life in Sprague-Dawley rat at 1 mg/kg, iv administered as single dose by LC-MS/MS analysis. Conditions: in vivo.
A short description of data set [5]: Half life in Sprague-Dawley rat at 10 mg/kg, po administered as single dose by LC-MS/MS analysis. Conditions: in vivo.
Data set [6] is described as follows: Effect on spontaneous locomotion in mouse assessed as reduction in distance travelled at 0.5 mg/kg, po administered for 3 hrs. The conditions noted are these: in vivo.
Data set [7] can be described thus: Aqueous solubility of the compound. Conditions: buffer.
The target of a further data set is Mu-type opioid receptor (Rattus norvegicus, UniProt P33535). Kind of data set: Displacement of [3H]DAMGO from rat mu opioid receptor expressed in CHO cell membrane measured after 30 mins by liquid scintillation counting method. For orientation: Displacement assays read how much labelled ligand stays bound in the presence of the test substance.
Data set [8] has as its target Delta-type opioid receptor (Rattus norvegicus, UniProt P33533). Nature of the data set: Displacement of [3H]DPDPE from rat delta opioid receptor expressed in CHO cell membrane measured after 30 mins by liquid scintillation counting method.
Data set [9] has as its system Mus musculus. Kind of data set: Antinociceptive activity in ip dosed Kunming mouse assessed as reduction in acetic acid induced writhing signs measured after 15 mins by abdominal constriction test. Conditions: 0.25 h. (Writhing tests count abdominal constrictions after an irritant is injected.)
Data set [10] concerns Mus musculus. Kind of data set: Antinociceptive activity in ip dosed Kunming mouse by hot plate test. (In general: In hot-plate and tail-flick tests a longer latency is read as antinociception.)
A short description of data set [11]: Effect on spontaneous locomotion in mouse assessed as reduction in distance travelled at 1 mg/kg, ip administered for 3 hrs. The conditions noted are these: in vivo.
A short description of data set [12]: Effect on spontaneous locomotion in mouse assessed as reduction in distance travelled at 7.5 mg/kg, ip administered for 2 hrs. The conditions noted are these: in vivo.

Protein sequences, listed by entry. Tags and fused reporters are not part of them.
UniProt P33535, whole entry, looked up: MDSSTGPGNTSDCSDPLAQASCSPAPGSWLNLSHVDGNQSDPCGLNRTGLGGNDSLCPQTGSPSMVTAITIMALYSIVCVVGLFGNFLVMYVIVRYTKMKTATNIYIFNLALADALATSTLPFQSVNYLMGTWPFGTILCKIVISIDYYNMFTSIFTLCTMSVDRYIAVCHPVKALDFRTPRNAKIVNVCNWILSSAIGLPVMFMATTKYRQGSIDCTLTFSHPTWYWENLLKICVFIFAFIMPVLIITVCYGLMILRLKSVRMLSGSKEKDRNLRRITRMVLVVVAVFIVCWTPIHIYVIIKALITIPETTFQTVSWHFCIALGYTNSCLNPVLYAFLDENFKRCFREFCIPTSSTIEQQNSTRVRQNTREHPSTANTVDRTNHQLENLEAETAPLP
UniProt P33533, whole entry, looked up: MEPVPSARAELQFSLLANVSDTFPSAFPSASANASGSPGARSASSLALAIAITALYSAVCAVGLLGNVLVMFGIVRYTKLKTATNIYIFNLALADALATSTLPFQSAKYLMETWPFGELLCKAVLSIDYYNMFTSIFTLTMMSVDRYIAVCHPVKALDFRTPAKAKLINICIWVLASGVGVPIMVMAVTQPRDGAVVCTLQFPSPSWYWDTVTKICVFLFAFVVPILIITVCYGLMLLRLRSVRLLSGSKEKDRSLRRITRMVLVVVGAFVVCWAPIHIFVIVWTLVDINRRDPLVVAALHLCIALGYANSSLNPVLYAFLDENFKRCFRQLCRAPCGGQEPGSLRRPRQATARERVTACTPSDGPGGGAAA

Each structure is given as a SMILES string.

As usually defined, the Vdss is a proportionality between amount in the body and measured concentration, not a real space. As a reminder, the solubility is the concentration that dissolves in the medium under given conditions. As a reminder, the Ki is a dissociation constant, usually derived from enzyme kinetics or from competition with a known ligand. Higher therefore signals lower affinity. Usually ED50 stands for the dose that gives a 50% effect, or the effect in half of the subjects.

As for `COc1ccc(CNc2cccc([C@H]3C[C@@]45CC[C@]3(OC)[C@@H]3Oc6c(OC)ccc7c6[C@@]34CCN(CC3CC3)[C@@H]5C7)c2)cc1`, the Activity result in [1], in data set [2] and in data set [6] was “Non-Toxic” throughout. The Vdss in data set [3] was determined as 3.54 L/kg. In addition, the t1/2 in data set [4] stood at 1.25 h; in data set [5] it was 9.89 h.
`COc1ccc2c3c1O[C@H]1[C@@]4(OC)CC[C@@]5(C[C@@H]4c4ccc(NC(=O)c6ccccc6)cc4)[C@@H](C2)N(CC2CC2)CC[C@]315.Cl` showed a solubility in data set [7] of under 500 µg/mL.
Take `CN(C(=O)Cc1ccc(Cl)c(Cl)c1)[C@H]1CCCC[C@@H]1N1CCCC1`: the figures for the Ki (at Mu-type opioid receptor; in data set [8]) were 1400 nM and over 5000 nM, respectively. In addition, the ED50 in the data set with Mus musculus [9] came out at 0.89 mg/kg; with Mus musculus [10], 4.42 mg/kg.
As for `COc1ccc2c3c1O[C@H]1[C@@]4(OC)CC[C@@]5(C[C@@H]4c4ccc(NC(=O)c6ccccc6)cc4)[C@@H](C2)N(CC2CC2)CC[C@]315`, the Activity entry in [11] is “Non-Toxic”. In data set [3], this molecule had a Vdss of 12.7 L/kg. For the same molecule, the t1/2 stood at 4.62 h in [4] and 5.15 h in data set [5].
On to `COc1ccc2c3c1O[C@H]1[C@@]4(OC)C=C[C@@]5(C[C@@H]4C(=O)c4ccccc4)[C@@H](C2)N(CC2CC2)CC[C@]315`, for which the Activity entry in data set [12] is recorded as “Toxic”.
In [7], `COc1ccc(CNc2cccc([C@H]3C[C@@]45CC[C@]3(OC)[C@@H]3Oc6c(OC)ccc7c6[C@@]34CCN(CC3CC3)[C@@H]5C7)c2)cc1.Cl` registered a solubility of 10000 µg/mL.
